Measurements: US20040198743A1 (Schering Corporation, priority 2003, published 2004)

Amino acid sequences for entries named in this document (tags omitted).
UniProt Q9Y5N1, whole entry: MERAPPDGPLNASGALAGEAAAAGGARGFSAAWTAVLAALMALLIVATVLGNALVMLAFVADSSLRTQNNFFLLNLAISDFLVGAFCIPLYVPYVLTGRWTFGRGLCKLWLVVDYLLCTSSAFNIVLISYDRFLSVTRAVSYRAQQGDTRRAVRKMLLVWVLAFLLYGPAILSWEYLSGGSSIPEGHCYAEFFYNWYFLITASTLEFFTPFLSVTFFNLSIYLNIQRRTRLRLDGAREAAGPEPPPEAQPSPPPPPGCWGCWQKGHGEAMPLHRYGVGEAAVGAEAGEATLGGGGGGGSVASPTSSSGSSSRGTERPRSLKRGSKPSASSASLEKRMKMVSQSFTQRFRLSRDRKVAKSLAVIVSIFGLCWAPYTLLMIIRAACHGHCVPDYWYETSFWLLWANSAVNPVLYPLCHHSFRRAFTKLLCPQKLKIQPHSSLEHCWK

Biological target: Histamine Receptor H3 (Homo sapiens, UniProt Q9Y5N1)
Test: Membrane binding assay, [3H]-N'-methylhistamine for H3 binding
Conditions: concentration not given

H3 Ki (nM), value printed as %: 1%
Structure (SMILES): CC(C)(C(=O)O)c1ccc(C(=O)CCCN2CCC(OC(c3ccccc3)c3ccccc3)CC2)cc1
